Molecules are shown by their SMILES. The entries are a selection whose mix differs from that of the whole data set. Calls of active or inactive are those of the source.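 The calls were made as follows: active = signal rise over 3 SD above mean of control wells given weak agonist, in both repeats and first screen; inactive = the rest.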

The test system of this test is TRPC4 (mouse), co-expressed with 5HT1a in HEK293. The test can be described thus: enhancement of serotonin-evoked TRPC4 response – cell-based, second counter screen, HEK293 TRPC4/5HT1a, Fluo-4, counter-screen for TRPC4 potentiator project, confirmation (AID 434979). The following applies: Fluo-4 calcium flux, at 10 µM, serotonin added at its EC20 dose; stronger effect = higher value. In general terms: A counterscreen serves to expose hits that act by an unwanted route or on another target.
For `CN(C)CCOC(=O)C(O)(c1ccccc1)C1CCCC1` (configuration not stated), the potentiation entry was “inactive”.
Under `CCN(CC)CCCOC(=O)C(O)(c1ccccc1)c1ccccc1` stands active: 20.3%.

(Values after PubChem BioAssay AID434979 (Johns Hopkins Ion Channel Center, 2010).)
